ChEMBL document CHEMBL3758094, “Thioxocoumarins Show an Alternative Carbonic Anhydrase Inhibition Mechanism Compared to Coumarins” (J Med Chem, 2016)

Assays:
Carbonic anhydrase 12 = Carbonic anhydrase 12 (Homo sapiens, UniProt O43570)
Carbonic anhydrase 9 = Carbonic anhydrase 9 (Homo sapiens, UniProt Q16790)

Ki (Carbonic anhydrase 12): > 100 µM
Ki (Carbonic anhydrase 9): > 100 µM
SMILES: O=c1ccc2ccccc2o1 [COUMARIN]
